# AlphaSeq binding of Ab-95 light chain variants to a spike HR2 peptide

All variants were tested on one target, the spike HR2 peptide PDVDLGDISGINAS (SARS-CoV-2).

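The starting antibody came from a phage panning campaign against this peptide. The library (AAYL52) carries one to three amino acid substitutions per variant, with no insertions or deletions. In AlphaSeq, yeast of one mating type display the scFv and yeast of the other type display the target. Pairs that bind mate more often; barcode pairs of the diploids are counted by sequencing. A regression on co-assayed BCL2-family reference pairs converts the normalised counts of each replicate to an apparent Kd. Mating was done three times.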

Parent scFv Ab-95: VH joined to VL by a (GGGGS)3 linker. Changes lie in the light chain CDRs alone.
VH: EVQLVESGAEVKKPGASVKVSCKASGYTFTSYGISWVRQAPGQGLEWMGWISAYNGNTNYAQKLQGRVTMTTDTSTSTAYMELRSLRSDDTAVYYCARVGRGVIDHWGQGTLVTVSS
VL: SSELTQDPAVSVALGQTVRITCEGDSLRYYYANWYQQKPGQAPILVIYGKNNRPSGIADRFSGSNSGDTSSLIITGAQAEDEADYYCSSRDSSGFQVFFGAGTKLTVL

Each variant is given by its three light chain CDRs, as the data file delimits them; those of the parent are EGDSLRYYYAN, GKNNRPS, SSRDSSGFQVF. Numbers give log10(Kd / nM), so 0 is 1 nM and 3 is 1 µM. Smaller is tighter. Replicates are averaged; those with no signal do not enter the mean. A pair that was not seen in that replicate is written "ND"; this usually means weak binding, but a binder can also be missed. Empty control strains, which show no peptide, gave a signal in 28% of pairings with library AAYL52; the median was 3.91 and 95% of these signals were weaker than 2.90. No background was subtracted. Also given: how often the same scFv was detected with the empty control strains, with their mean in brackets.

| CDR-L1 | CDR-L2 | CDR-L3 | replicates, log10 nM | mean log10 Kd (nM) | control signals |
|---|---|---|---|---|---|
| EQDSLRYYYAN | GKNNRPS | SSRDNSGGQVF | ND / 4.79 / ND | 4.79 | 4/9 (3.65) |
| EGDSLRCDYAN | GKNNRPS | SCRDSSGFQVF | 1.58 / 1.57 / 1.06 | 1.40 | 2/9 (4.27) |
| EGDSLRYYYAK | WKNNRPS | SVRDSSGFQVF | ND / 3.96 / 4.54 | 4.25 | 4/9 (4.40) |
| ERDSLRYYRAN | GKNNRPS | SSRDSSIFQVF | 5.00 / ND / ND | 5.00 | 3/9 (4.30) |
| EGDSLRYYKAN | GKNNRPS | SSRDRSGFQLF | 2.56 / 2.55 / 2.91 | 2.68 | 4/9 (3.76) |
| EGDSLRYYYAN | GKNNRKS | SSRDSSGNQVF | 5.29 / 4.99 / ND | 5.14 | 4/9 (3.52) |
| EGDSLRYYYAN | GKNRRPS | SSRDSSGNQQF | 4.23 / 4.13 / ND | 4.18 | 4/9 (4.04) |
| EGDSLRYYYAW | GMNNRPS | SCRDSSGFQVF | 2.00 / 3.03 / ND | 2.52 | 4/9 (2.84) |
| EGDSLRYYYAN | GKNNRIS | SSRQSSGFEVF | 4.44 / ND / ND | 4.44 | 1/9 (4.22) |
| EGDSLRQYYAS | GKNQRPS | SSRDSSGFQVF | 3.04 / 2.51 / 3.40 | 2.99 | 3/9 (4.06) |
| EGDSLRAYYAN | GKNNRPS | SSRDSPGLQVF | 2.77 / 2.75 / 2.69 | 2.73 | 6/9 (4.26) |
| EGDSLRYYYAN | GKNNRPS | SSRDSSGVQVF | 2.77 / 2.39 / 1.94 | 2.37 | 4/9 (4.28) |
| HGDSLRYYHAN | GKNNRPS | SSRDSSGFQVF | 1.55 / 1.51 / 1.16 | 1.41 | 2/9 (4.40) |
| EGDSLCYYYAN | GNNKRPS | SSRDSSGFQVF | 3.26 / 2.44 / 2.50 | 2.73 | 3/9 (3.44) |
| EGDSLRYYYRN | GKNNRPS | SSFDSSGFQVF | ND / ND / ND | ND | 2/9 (4.06) |
| NGASLRYYYAN | GKNNRPS | SSRDGSGFQVF | 2.44 / 2.75 / 2.51 | 2.57 | 7/9 (4.44) |
| EGKSLRYYYAN | GKNNERS | SSRDSSGFQVF | 3.19 / 3.82 / 3.89 | 3.63 | 4/9 (4.18) |
| EGDSLRYYYAN | GKNNRPS | SSDCSSQFQVF | ND / ND / ND | ND | 3/9 (4.58) |
| EGDSWRYYYAN | GKNNRPS | SSRCSSGFQVA | ND / ND / ND | ND | 1/9 (5.11) |
| EGDSLRYYYAN | GKYNRKS | SSRDSSGFQVF | 4.51 / 4.27 / 2.39 | 3.73 | 6/9 (4.38) |
| EGDSYRSYYAN | GKNNRPS | SSRDSSGFQVG | 4.60 / 2.90 / 2.38 | 3.30 | 6/9 (4.21) |
| EGDSLRYYYAN | GKNNRPQ | SSRDSSGFQVF | 1.83 / 2.07 / 1.40 | 1.76 | 3/9 (4.60) |
| EGDSLRRYYAI | GKNNRPL | SSRDSSGFQVF | 2.04 / 1.67 / 1.97 | 1.89 | 4/9 (3.84) |
| EGDSLRYYYAN | GKNVTPS | SSRCSSGFQVF | ND / ND / ND | ND | 2/9 (3.74) |
| EGDSLRYYYAN | GKNLRPS | VSRDSSGHQVF | 2.77 / 2.84 / 2.27 | 2.62 | 0/9 |
| EGDSLRYYNAN | GKNGRPS | SSRDSSEFQVF | ND / 4.00 / ND | 4.00 | 1/9 (4.53) |
| EGKSLFYYLAN | GKNNRPS | SSRDSSGFQVF | 3.71 / 3.17 / 3.32 | 3.40 | 0/9 |
| EGDSLRYKYLN | GKNNRPS | SSRDSSGFQDF | 4.21 / ND / ND | 4.21 | 2/9 (3.44) |
| EGDSLRYYYAL | GKNRRPS | SSRDDSGFQVF | ND / ND / ND | ND | 3/9 (4.39) |
| EGDSLRYDYAN | GKINRPS | SSRDLSGFQVF | 2.86 / 4.39 / 3.83 | 3.69 | 1/9 (3.27) |
| GDDSLRYYYAN | GKNNRPS | SSRDSSNFQVF | ND / 3.08 / 4.22 | 3.65 | 5/9 (3.81) |
| EGDSARYYYAN | GKNCRPS | SSRDSSGFHVF | 3.79 / 3.98 / 4.88 | 4.22 | 5/9 (4.19) |
| EGDGLFYYYAN | GKNNRPS | YSRDSSGFQVF | 3.29 / ND / ND | 3.29 | 2/9 (3.48) |

Picked from the list: the 4 lowest averages where every replicate gave a value.

CDR-L1,CDR-L2,CDR-L3,"replicates, log10 nM",mean log10 Kd (nM),control signals
EGDSLRCDYAN,GKNNRPS,SCRDSSGFQVF,1.58 / 1.57 / 1.06,1.40,2/9 (4.27)
HGDSLRYYHAN,GKNNRPS,SSRDSSGFQVF,1.55 / 1.51 / 1.16,1.41,2/9 (4.40)
EGDSLRYYYAN,GKNNRPQ,SSRDSSGFQVF,1.83 / 2.07 / 1.40,1.76,3/9 (4.60)
EGDSLRRYYAI,GKNNRPL,SSRDSSGFQVF,2.04 / 1.67 / 1.97,1.89,4/9 (3.84)

Source: Engelhart et al. 2022 (doi:10.1038/s41597-022-01779-4), MIT Lincoln Laboratory and A-Alpha Bio; data file from the FLAb repository.